This is a selection; strong and weak results do not stand in their true shares. Calls of active or inactive are those of the source.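 The calls were made as follows: active = a compound raising TNF-alpha-driven VCAM-1 surface staining, with its hit status upheld on visual or statistical review; inactive = the rest, including hits rejected on review.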
Experiment: boosters of cytokine-driven VCAM-1 levels – cell-based, plate reader, pooled HUVEC, TNFa stimulus (AID 455)
Conditions: HUVEC TNFa-induced VCAM-1 immunofluorescence
With `CP(=S)(Nn1cnnc1)Oc1ccccc1` (stereo not given) the outcome was “inactive”. With `Cc1ccc(C)c(NP(C)(=O)Oc2ccccc2)c1` (stereo not given) the outcome was “inactive”. In the case of `CN(C)CCOC(=O)C(O)(c1ccccc1)C1CCCCC1` (stereo not given), the outcome was “inactive”. For `CP(=O)(Nc1ccc2c(c1)OCCO2)Oc1ccccc1` (stereo not given), the outcome was “inactive”. In the case of `CP(=O)(Nc1ccccn1)Oc1ccccc1` (stereo not given), the outcome was “inactive”.
